Antibody variant affinities, Ab-14 light chain, assay B

From the AlphaSeq antibody data of Li et al. 2023 (doi:10.1038/s41467-023-39022-2), copy in the FLAb collection.

Target: peptide PDVDLGDISGINAS, taken from heptad repeat 2 (HR2) of SARS-CoV-2 spike.

The variants keep the heavy chain, the linker and the frameworks of Ab-14 (scFv order VH, three GGGGS repeats, VL).
VH: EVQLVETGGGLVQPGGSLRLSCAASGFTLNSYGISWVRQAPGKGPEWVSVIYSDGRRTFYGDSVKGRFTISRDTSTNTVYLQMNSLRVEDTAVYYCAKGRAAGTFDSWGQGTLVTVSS
VL: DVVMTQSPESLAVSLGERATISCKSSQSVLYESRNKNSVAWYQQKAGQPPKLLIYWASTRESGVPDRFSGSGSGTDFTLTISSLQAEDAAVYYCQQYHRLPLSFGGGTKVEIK

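The parent was found by panning a naive human phage display library on the peptide. Designed CDR sequences, proposed from the first random library and measured here. Their group label is 14L_GP_Gibbs (GP: Gaussian process model; Gibbs: Gibbs sampling; a sequence that several methods proposed may carry one label only). Affinity was read by AlphaSeq, a pooled yeast mating assay with surface-displayed partners. Pairs that bind mate more often; barcode pairs of the diploids are counted by sequencing. A regression on co-assayed BCL2-family reference pairs converts the normalised counts of each replicate to an apparent Kd. The assay was run in six technical replicates.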

The parent's light chain CDRs are KSSQSVLYESRNKNSVA, WASTRES, QQYHRLPLS; each variant's own CDRs replace them letter for letter.
The read-out is the apparent dissociation constant on a log10 scale (nM): the lower, the stronger.
The mean shown is taken over the replicates in which the pair was detected.
A sequence measured in both rounds can read differently, since the two assays cover different ranges.
In the paper, a design with two or fewer of six values counts as a poor binder.
Nonspecific signal, from three strains lacking the peptide, appeared in 4% of pairings of all light chain designs, centred on 2.64 (5% of these signals below 1.59); values are not corrected for it. For each scFv, signals with the empty controls are counted beside the result, with their mean in brackets.
The parent sequence was in this pool as ten entries: three were never detected, three once, and four in most replicates, with averages from 0.34 to 2.37.

{"CDR-L1": "KVSQKDPMGSRNKNSVA", "CDR-L2": "EASVRED", "CDR-L3": "QQYHRLPLS", "log10 Kd, replicates": "-0.08 / -0.13 / -0.21 / -0.33 / -0.20 / 0.12", "mean, log10 nM": "-0.14", "empty controls": "2/18 (2.88)"}
{"CDR-L1": "KMSQSELYESQNSNSVA", "CDR-L2": "HASQRMS", "CDR-L3": "QQYHRLPLS", "log10 Kd, replicates": "-0.09 / -0.27 / -0.03 / 0.18 / -0.10 / 0.01", "mean, log10 nM": "-0.05", "empty controls": "0/18"}
{"CDR-L1": "KLSSSWLMEQRNVNSVA", "CDR-L2": "QASQRLR", "CDR-L3": "QQYHRLPLS", "log10 Kd, replicates": "0.41 / 0.13 / 0.23 / 0.17 / 0.54 / 0.52", "mean, log10 nM": "0.34", "empty controls": "0/18"}
{"CDR-L1": "KLQQSVLMGSRNKNSVA", "CDR-L2": "EASTREV", "CDR-L3": "QAYHRLPLS", "log10 Kd, replicates": "0.80 / 0.06 / -0.05 / 0.25 / 0.01 / 0.19", "mean, log10 nM": "0.21", "empty controls": "0/18"}
{"CDR-L1": "KLSQSFLYESRNKMSVA", "CDR-L2": "NASTREE", "CDR-L3": "QQYHRLPLS", "log10 Kd, replicates": "-0.57 / -0.30 / -0.60 / -0.47 / -0.56 / -0.20", "mean, log10 nM": "-0.45", "empty controls": "0/18"}
{"CDR-L1": "KQQQSMLYESRNKNSVA", "CDR-L2": "NASTREE", "CDR-L3": "QQYHRLPLM", "log10 Kd, replicates": "0.53 / 0.02 / -0.09 / -0.05 / -0.01 / -0.09", "mean, log10 nM": "0.05", "empty controls": "0/18"}
{"CDR-L1": "KLSTSVMLESRNVNSVA", "CDR-L2": "DASTRSE", "CDR-L3": "QQYHRLPLS", "log10 Kd, replicates": "-0.08 / -0.12 / -0.35 / -0.15 / -0.09 / -0.02", "mean, log10 nM": "-0.14", "empty controls": "0/18"}
{"CDR-L1": "KLQGSDLYESRVKNSVA", "CDR-L2": "QASVRES", "CDR-L3": "QQYHRLPLS", "log10 Kd, replicates": "0.33 / 0.33 / 0.18 / 0.22 / 0.26 / 0.16", "mean, log10 nM": "0.25", "empty controls": "1/18 (3.46)"}
{"CDR-L1": "KAQQSNLYEDRNQNSVA", "CDR-L2": "SASQRLS", "CDR-L3": "QQYHRLPLS", "log10 Kd, replicates": "0.62 / 0.00 / -0.06 / 0.27 / -0.08 / 0.26", "mean, log10 nM": "0.17", "empty controls": "0/18"}
{"CDR-L1": "KFSQSWWYESRVKNNVA", "CDR-L2": "NASQRES", "CDR-L3": "QQYHRLPLS", "log10 Kd, replicates": "0.15 / 0.20 / 0.12 / 0.26 / -0.06 / -0.03", "mean, log10 nM": "0.11", "empty controls": "0/18"}
{"CDR-L1": "KLSKMVMYGSRNKNSVA", "CDR-L2": "SASTREE", "CDR-L3": "QQYHRLPLS", "log10 Kd, replicates": "1.09 / 1.13 / 1.18 / 1.10 / 1.79 / 0.98", "mean, log10 nM": "1.21", "empty controls": "2/18 (2.21)"}
{"CDR-L1": "KLWMSVLGESRNSNAVA", "CDR-L2": "SASTREQ", "CDR-L3": "QQYHRLPLS", "log10 Kd, replicates": "1.31 / 0.71 / 0.54 / 0.97 / 0.67 / 0.84", "mean, log10 nM": "0.84", "empty controls": "0/18"}
{"CDR-L1": "KSSMSVEMESRNKNNVA", "CDR-L2": "DASQRES", "CDR-L3": "QQYHRLPLS", "log10 Kd, replicates": "0.36 / 0.04 / 0.11 / -0.06 / 0.42 / 0.02", "mean, log10 nM": "0.15", "empty controls": "0/18"}
{"CDR-L1": "KLSCSWLMESRNSNSVA", "CDR-L2": "HASKRES", "CDR-L3": "QQYHRLPLS", "log10 Kd, replicates": "0.59 / 0.56 / 0.83 / 0.36 / 0.36 / 0.76", "mean, log10 nM": "0.58", "empty controls": "2/18 (2.53)"}
{"CDR-L1": "KLMQSWDYESRNKNSVA", "CDR-L2": "NASKRMS", "CDR-L3": "QQYHRLPLS", "log10 Kd, replicates": "0.26 / 0.27 / 0.55 / 0.30 / 0.47 / 0.37", "mean, log10 nM": "0.37", "empty controls": "2/18 (2.57)"}
{"CDR-L1": "FLMQSWDYESRNKNSVA", "CDR-L2": "NASTRMS", "CDR-L3": "QQYHRLPLS", "log10 Kd, replicates": "0.13 / 0.03 / 0.04 / -0.12 / 0.11 / 0.44", "mean, log10 nM": "0.10", "empty controls": "0/18"}
{"CDR-L1": "AFSQSVLYESRNQNAVA", "CDR-L2": "EASTRCD", "CDR-L3": "QQYHRLPLS", "log10 Kd, replicates": "-0.14 / -0.30 / -0.50 / -0.45 / -0.39 / -0.26", "mean, log10 nM": "-0.34", "empty controls": "2/18 (2.89)"}
{"CDR-L1": "KVSPSWEYESRNKQSVA", "CDR-L2": "HASQREE", "CDR-L3": "QQYHRLPLS", "log10 Kd, replicates": "0.05 / 0.06 / 0.06 / -0.21 / 0.05 / 0.19", "mean, log10 nM": "0.03", "empty controls": "1/18 (2.20)"}
{"CDR-L1": "KLQGSELGESRNKNSVA", "CDR-L2": "SADTRES", "CDR-L3": "QQYHRLPLS", "log10 Kd, replicates": "-0.38 / -0.72 / -0.80 / -0.78 / -0.37 / -0.51", "mean, log10 nM": "-0.59", "empty controls": "0/18"}
{"CDR-L1": "KSSCSEPYDSLNSNSVA", "CDR-L2": "NASQRER", "CDR-L3": "QQYHRLPLS", "log10 Kd, replicates": "0.93 / 1.00 / 0.87 / 0.63 / 0.86 / 0.84", "mean, log10 nM": "0.85", "empty controls": "1/18 (2.86)"}
{"CDR-L1": "KLEQEYLYGSRNKNSVA", "CDR-L2": "QASLRES", "CDR-L3": "QQYHRLPLS", "log10 Kd, replicates": "-0.09 / 0.15 / 0.11 / 0.13 / 0.01 / 0.22", "mean, log10 nM": "0.09", "empty controls": "1/18 (2.14)"}

Picked from the list: the 2 lowest averages where every replicate gave a value.

{"CDR-L1": "KLQGSELGESRNKNSVA", "CDR-L2": "SADTRES", "CDR-L3": "QQYHRLPLS", "log10 Kd, replicates": "-0.38 / -0.72 / -0.80 / -0.78 / -0.37 / -0.51", "mean, log10 nM": "-0.59", "empty controls": "0/18"}
{"CDR-L1": "KLSQSFLYESRNKMSVA", "CDR-L2": "NASTREE", "CDR-L3": "QQYHRLPLS", "log10 Kd, replicates": "-0.57 / -0.30 / -0.60 / -0.47 / -0.56 / -0.20", "mean, log10 nM": "-0.45", "empty controls": "0/18"}